This note sets out measurements from US11135236B2, “Retinoic acid receptor gamma agonists to attenuate anthracycline-induced cardiotoxicity” (Northwestern University, priority 2018, dated 2021).

One data set deals with S427L-1 hiPSC-CMs. To be noted: for S427L-1: LD50: 72 h.
Data set [1] relates to RARG expression and TOP2B signaling. The data set is described as follows: real-time PCR of RARG expression and TOP2B signaling in S427L hiPSC-CMs. The class given is cell-based, human. The settings on record: 1 μM CD1530, 3 μM doxorubicin 24 h. How it is done: Quantitative Real-time PCR. […] All PCR reactions were performed in triplicate in a 384-well plate format using TaqMan Gene Expression Master Mix in a QuantStudio 5 Real-Time PCR System (both Applied Biosystems) with following TaqMan Gene Expression Assays (Life Technoloiges): 18S (Hs99999901_s1), ACTB (Hs01060665_g1), GAPDH (Hs02786624_g1), NANOG (Hs02387400_g1), POU5F1 (Hs00999632_g1), SOX2 (Hs01053049_s1), KLF4 (Hs00358836_m1), LIN28 (Hs00702808_s1), MYC (Hs00153408_m1), UTF1 (Hs00747497_g1), DNMT3B (Hs01003405_m1), TERT (Hs99999022_m1), ZFP42 (Hs00399279_m1), TP53 (Hs99999147_m1), RARG (Hs01559234_m1), TOP2B (Hs00172259_m1), PPARGC1A (Hs00173304) and PPARGC1B (Hs00993805_m1). Relative quantification of gene expression was calculated using 2^−ΔΔCt method (Schmittgen and Livak, 2008), normalized to the reference 18S, ACTB, or GAPDH and untreated control samples as specified in the figure legends.

For data set [2], the system named is S427L hiPSC-CMs. The data set is described as follows: hiPSC-CM cell viability after 72 h doxorubicin (CellTiter-Glo). The data set is classed as cell-based, human.
Data set [3] concerns S427L hiPSC-CMs. Kind of data set: caspase 3 and 7 activity after 24 h doxorubicin (Caspase 3/7-Glo). The data set is classed as cell-based, human.
Setting [4] is: doxorubicin LD50 with agonist 0.3 μM pre/co-treatment, 0 μM agonist: 0.600.
Where [5] appears, read: doxorubicin LD50 with agonist 1 μM pre/co-treatment, 0 μM agonist: 0.600.
Where [6] appears, read: doxorubicin LD50 with agonist 10 μM pre/co-treatment, 0 μM agonist: 0.600.

Like-named read-outs stand apart in the source and are kept apart here. Marks after values point to notes of the source that are not given here.

As for `CC1=C(/C=C/C(C)=C/C=C/C(C)=C/C(=O)O)C(C)(C)CCC1` [ATRA, 3,7-Dimethyl-9-(2,6,6-trimethyl-1-cyclohexen-1-yl)-2E,4E,6E,8E-nonatetraenoic acid], the “S427L-1: LD50” value in the data set with S427L-1 hiPSC-CMs (setting [4]) is recorded as 0.951** μM; with S427L-1 hiPSC-CMs (setting [5]), 2.111*** μM; in the data set with S427L-1 hiPSC-CMs (setting [6]), 2.750*** μM.

With `O=C(O)c1ccc2cc(-c3ccc(O)c(C45CC6CC(CC(C6)C4)C5)c3)ccc2c1` [CD437, 6-(4-Hydroxy-3-tricyclo[3.3.1.13,7]dec-1-ylphenyl)-2-naphthalenecarboxylic acid], the “S427L-1: LD50” value in the data set with S427L-1 hiPSC-CMs (setting [4]) is reported as 2.772** μM; in the data set on S427L-1 hiPSC-CMs (setting [5]), 1.692*** μM; with S427L-1 hiPSC-CMs (setting [6]), 1.558*** μM.

Turning to `O=C(O)c1ccc(-c2ccc3cc(O)c(C45CC6CC(CC(C6)C4)C5)cc3c2)cc1` [CD1530, 4-(6-Hydroxy-7-tricyclo[3.3.1.13,7]dec-1-yl-2-naphthalenyl)benzoic acid], the RARG expression result in data set [1] is recorded as “increased RARG expression”. For the same compound, the TOP2B expression entry in data set [1] was “repressed TOP2B expression”. The “genes involved in mitochondrial biogenesis” value in data set [1] is given as “upregulated”. In the data set on S427L-1 hiPSC-CMs (S427L hiPSC-CMs, agonist 1 μM, 72 h doxorubicin), the “increase of doxorubicin LD50” value was 7 fold. The “S427L-1: LD50” value is on record as 1.520** μM in the data set with S427L-1 hiPSC-CMs (setting [4]), 4.428*** μM in the data set with S427L-1 hiPSC-CMs (setting [5]) and 4.537*** μM in the data set with S427L-1 hiPSC-CMs (setting [6]). Besides, the “effect on cell viability after doxorubicin treatment” value in the data set with S427L-1 hiPSC-CMs (pre/co-treatment 0.3, 1, 10 μM, doxorubicin 72 h, hiPSC-CMs) is reported as “most effective”.

Regarding `COc1cccc2c1C(=O)c1c(O)c3c(c(O)c1C2=O)C[C@@](O)(C(=O)CO)C[C@@H]3O[C@H]1C[C@H](N)[C@H](O)[C@H](C)O1` [doxorubicin], in the data set on S427L hiPSC-CMs [2], the “half-maximal lethal dose (LD50), cell viability” value was determined as 0.63 µM. Also, the “LD50, caspase 3 and 7 activity” value in the data set on S427L hiPSC-CMs [3] was determined as 1.228 µM. The “S427L-1: LD50” value with S427L-1 hiPSC-CMs (doxorubicin LD50, agonist 0 μM) came out at 0.600 µM.
